Screening results (PubChem)
Most compounds without a hit are left out; they make up all but 1.3% or so of the library.
SR-BI HDL uptake = inhibitors of SR-BI mediated HDL lipid uptake, primary screen, ldlA[mSR-BI] cells, fluorescence, single point | ldlA[mSR-BI] CHO cells, DiI-HDL uptake fluorescence, 3 h | Scavenger receptor class B member 1 (Mus musculus), Q61009 | inhibition, % at 12.5 µM | actives 0.96% (n = 320,000);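 active = mean replicate inhibition of at least 70% and a set share of replicates each scoring 70 or more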;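 note: 0% = median of neutral control wells and 100% = median of positive control wells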
SR-BI uptake up = activators of SR-BI mediated DiI-HDL uptake, primary screen, ldlA[mSR-BI] CHO cells, DiI fluorescence; actives 0.096% (n = 320,000); activation, % at 12.5 µM; 3 h; 100 = double the neutral-control signal; AID 504775, 2011;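 active = mean replicate activation of at least 60% and every replicate at or above 60%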;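 note: 0% = median plate neutral-control signal and 100% = twice that signal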
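Material: SR-BI-overexpressing, LDLR-lacking CHO cells | Dosing: Single compound concentration, delivered by pin transfer | Probe or stimulus: Labelled HDL, 10 µg/mL | Signal: Bottom-read cell fluorescence after medium removal, ex 550/em 595 nm | Schedule: 3 h, 37 °C | Evaluation: HDL uptake via cellular fluorescence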
UUG fidelity = modulators of start codon recognition fidelity in yeast; AID 602363; activity score, % at 18.7 µM; S. cerevisiae UUG-firefly luciferase reporter, luminescence/redox ratio; 0.13% of 350,000 active;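 active = replicate mean at a twofold rise or more, about +100% in these data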;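 note: firefly luciferase made from a UUG start codon reports start codon fidelity; reporter light over untreated wells divided by growth signal over untreated wells; some hits fall short of that in this replicate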
GSIS activator = GLuc luminescence reporter in INS-1E cells, primary screen for activators of glucose-dependent secretion of insulin; activation, % at 16.6 µM; actives 0.61% (n = 370,000); INS-1E GLuc reporter insulin secretion, 2-3 h;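 active = lowest replicate activation of at least 40%, so every replicate reaches that level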;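 note: 0% = median of neutral control wells and 100% = median of IBMX positive control wells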
Starred values were filed as active, the others as inactive; i = inactive; · = no result.

Molecule	SR-BI HDL uptake	SR-BI uptake up	UUG fidelity	GSIS activator
CCCn1nc2cc(C(=O)NC3CCCc4ccccc43)ccc2c1OCC (stereo unspecified)	64.8	-64.8	-8.5	-15.5
CCCCn1nc2cc(C(=O)NC3CCc4ccccc43)ccc2c1OCC (stereo unspecified)	76.7*	-76.7	-13.2	·
O=[N+]([O-])c1ccc(Nc2c3ccccc3nc3ccccc23)cc1	30.9	-30.9	·	-3.5
O=[N+]([O-])c1ccccc1Nc1c2ccccc2nc2ccccc12	76.5*	-76.5	·	3.9
O=c1cc(-c2ccccc2Cl)oc2cccc(O)c12	19.5	-19.5	-7.4	·
O=c1cc2oc3cc(O)c(O)cc3c(-c3ccccc3[N+](=O)[O-])c-2cc1O	89.6*	-89.6	-12.5	-0.8
CCC(=O)N[C@H]1CC[C@H](CCn2cc(CN(C)C)nn2)O[C@@H]1CO	·	·	-6.4	10.8
CCCCN(CCCC)C(=O)C1(P(=O)(c2ccccc2)c2ccccc2)CCC1	-21.1	21.1	2.4	-29.6
CCN(CC)C(=O)C1(P(=O)(c2ccccc2)c2ccccc2)CCC1	·	·	-12.3	89.7*
C[C@H](CO)N1C[C@H](C)[C@@H](CN(C)C(=O)C2CC2)Oc2cc(C#C[C@@H](C)O)ccc2S1(=O)=O	·	·	-7.2	19.9
Cc1ccc2c(Cl)c(C)c(N3CCCCC3)nc2n1	21.6	-21.6	·	52.8*
CCCCCCCCNS(=O)(=O)CCNCCc1ccccc1	-6.5	6.5	2.5	109.1
CCCCCCCCNCCS(=O)(=O)NCCCCCCCC	7.3	-7.3	-14.1	682.0*
O=C(Nc1ccccc1)N1CC(=O)N2[C@@H](CO)[C@@H](c3ccc(C#CC4CCCC4)cc3)[C@@H]2C1	·	·	·	2.5
Cc1ccc(OCC(=O)NNC(=O)CSc2ncnc3sc(C)c(C)c23)cc1	-11.5	11.5	·	-5.7
Cc1ccc(OCCSc2ncnc3sc(C)c(C)c23)cc1C	i	950.0*	-7.7	·
C[C@@H]1CN([C@@H](C)CO)C(=O)c2cccc(NS(=O)(=O)c3cccs3)c2O[C@@H]1CN(C)C(=O)NC1CCCCC1	·	·	14.7	-15.1
CCCN(C)C[C@H]1OCCCC[C@@H](C)Oc2ccc(NS(=O)(=O)c3cn(C)cn3)cc2C(=O)N([C@H](C)CO)C[C@H]1C	·	·	·	-0.3
Cc1cc(C)c(O)c(CN(C)Cc2cc(Cl)cc(Cl)c2O)c1	112.2*	-112.2	-17.3	·
CCCNC(=O)N1CC[C@@H]2[C@H]1c1cc(C#Cc3ccc(OC)cc3)ccc1N(C)[C@@H]2CO	·	·	11.9	-1.7
COc1cccc(/C=N/Nc2nc(Nc3ccc([N+](=O)[O-])cc3)nc(N3CCCC3)n2)c1O	87.4*	-87.4	-6.0	5.5
O=c1ccc2cc3c([nH]c4ccc(Br)cc43)oc-2c1O	87.8*	-87.8	-14.8	·
CCCNC(=O)N(C)C[C@H]1Oc2ncc(-c3cccc(C#N)c3)cc2C(=O)N([C@H](C)CO)C[C@@H]1C	·	·	12.0	4.2
COc1cccc(Nc2nc(-c3cccs3)nc3ccccc23)c1	68.8	-68.8	-2.5	5.4
COc1ccc(Nc2nc(-c3cccs3)nc3ccccc23)cc1	75.4*	-75.4	-9.3	11.0

Entries of single compounds, looked up by structure.
CCN(CC)C(=O)C1(P(=O)(c2ccccc2)c2ccccc2)CCC1 is entered as SR-BI HDL uptake: ·; SR-BI uptake up: ·; UUG fidelity: -12.3; GSIS activator: 89.7*
CCCCCCCCNS(=O)(=O)CCNCCc1ccccc1 is entered as SR-BI HDL uptake: -6.5; SR-BI uptake up: 6.5; UUG fidelity: 2.5; GSIS activator: 109.1

Reprinted at random: two entries already listed, in no set order.
Molecule	SR-BI HDL uptake	SR-BI uptake up	UUG fidelity	GSIS activator
Cc1cc(C)c(O)c(CN(C)Cc2cc(Cl)cc(Cl)c2O)c1	112.2*	-112.2	-17.3	·
COc1cccc(/C=N/Nc2nc(Nc3ccc([N+](=O)[O-])cc3)nc(N3CCCC3)n2)c1O	87.4*	-87.4	-6.0	5.5

New compounds follow
Molecule	SR-BI HDL uptake	SR-BI uptake up	UUG fidelity	GSIS activator
O=[N+]([O-])c1ccc(-c2nc(NCC3CCCO3)c3ccccc3n2)cc1 (stereo unspecified)	58.0	-58.0	·	43.6*
O=[N+]([O-])c1ccc(S(=O)(=O)Nc2nc3ccccc3nc2Nc2ccccc2)cc1	78.2*	-78.2	·	-9.5
O=[N+]([O-])c1ccc(-c2nc(Nc3ccc(O)cc3)c3ccccc3n2)cc1	90.7*	-90.7	-4.4	-7.8
Cc1cccc(-c2ccc([C@H]3[C@H](CO)N4CCCCN(Cc5ccncc5)C[C@@H]34)cc2)c1	·	·	-9.2	14.7
COc1ccc(Nc2nc(-c3cccc([N+](=O)[O-])c3)nc3ccccc23)cc1	87.6*	-87.6	-7.4	-0.9
CO[C@@H]1CN(C)C(=O)c2cc(NC(=O)C3CC3)ccc2OC[C@@H](C)N(C(=O)c2ccccc2)C[C@H]1C	·	·	4.3	2.1
Cc1ccc(-c2ccc3c(c2)O[C@H](CN(C)S(C)(=O)=O)[C@@H](C)CN([C@@H](C)CO)S3(=O)=O)cc1	·	·	0.0	-18.7
Cc1cc(/C=N/n2c(COc3ccccc3)nc3ccccc3c2=O)c(O)c([N+](=O)[O-])c1	129.8*	-129.9	·	30.4
Cc1ccc(-c2[nH]ncc2/C=N/n2c(COc3ccccc3)nc3ccccc3c2=O)cc1	25.4	-25.4	·	31.5
CC(C)C[C@@H](CN1CCCC1CN1C(=S)NC[C@@H]1Cc1ccc(O)cc1)N1C[C@H](Cc2ccc(O)cc2)N(CC2CCCCC2)C1=S (stereo partly specified)	-76.1	76.1*	-20.0	6.7
CC(C)C[C@H]1CN([C@@H](Cc2ccc(O)cc2)CN2CCC[C@H]2CN2C(=O)C(=O)NC[C@@H]2Cc2ccc(O)cc2)C(=O)C(=O)N1CCc1ccccc1	·	·	·	43.7*
Oc1ccc(C[C@H]2CNC(=S)N2CC2CCCN2C[C@H](Cc2ccc(O)cc2)N2C[C@H](Cc3ccc(O)cc3)N(CC3CCCCC3)C2=S)cc1 (stereo partly specified)	-183.3	183.4*	-18.3	-37.5
Oc1ccc(C[C@H]2CN([C@@H](Cc3ccccc3)CN3CCCC3CN3C(=S)NC[C@@H]3Cc3ccccc3)C(=S)N2CC2CCCCC2)cc1 (stereo partly specified)	·	·	·	-11.3
CC(C)C[C@H]1CN([C@@H](Cc2ccccc2)CN2CCC[C@H]2CN2C(=O)C(=O)NC[C@@H]2Cc2ccc(O)cc2)C(=O)C(=O)N1CCc1ccccc1	·	·	·	-8.7
Oc1ccc(C[C@H]2CN([C@@H](Cc3ccc(O)cc3)CN3CCC[C@@H]3CN3C(=S)NC[C@@H]3Cc3ccccc3)C(=S)N2CC2CCCCCC2)cc1	·	·	-18.5	·
Oc1ccc(C[C@H]2CNC(=S)N2CC2CCCN2C[C@H](Cc2ccccc2)N2C[C@H](Cc3ccc(O)cc3)N(CC3CCCCCC3)C2=S)cc1 (stereo partly specified)	-85.6	85.6*	-10.9	279.6
CC(C)OC(=O)N(C)C[C@H]1OCc2ccccc2-c2ccccc2C(=O)N([C@@H](C)CO)C[C@H]1C	·	·	·	-6.5
Cc1cc(=O)[nH]c2cc(O)ccc12	-41.7	41.7	-5.0	4.6
CC(C)=CCCC1(C)C=Cc2c(c(C)cc3c2[nH]c2cc(O)ccc23)O1 (stereo unspecified)	106.6*	-106.6	-8.1	·
C[C@@H]1CN([C@@H](C)CO)C(=O)c2cccc(NC(=O)Nc3ccccc3)c2O[C@@H]1CN(C)C(=O)Nc1cccc2ccccc12	·	·	·	-28.2
CCOC(=O)c1sc2nc(-c3ccco3)c3c(c2c1N)CC(C)(C)OC3	75.4*	-75.4	-12.5	·
Cc1nc2sc(C(=O)O)c(N)c2c2c1COC(C)(C)C2	8.5	-8.5	-1.9	·
CC1(C)Cc2c(c(-c3ccco3)nc3n[nH]c(N)c23)CO1	0.2	-0.2	-9.7	56.0*
